Values quoted from earlier work in patent publication US6342219B1, “Antibody compositions for selectively inhibiting VEGF” (Board of Regents, The University of Texas System, priority 1999, dated 2002).

Sequences of proteins named here, by UniProt entry; tags and fusion partners are left off. Residues count along the entry.
UniProt P35968, 20-1356: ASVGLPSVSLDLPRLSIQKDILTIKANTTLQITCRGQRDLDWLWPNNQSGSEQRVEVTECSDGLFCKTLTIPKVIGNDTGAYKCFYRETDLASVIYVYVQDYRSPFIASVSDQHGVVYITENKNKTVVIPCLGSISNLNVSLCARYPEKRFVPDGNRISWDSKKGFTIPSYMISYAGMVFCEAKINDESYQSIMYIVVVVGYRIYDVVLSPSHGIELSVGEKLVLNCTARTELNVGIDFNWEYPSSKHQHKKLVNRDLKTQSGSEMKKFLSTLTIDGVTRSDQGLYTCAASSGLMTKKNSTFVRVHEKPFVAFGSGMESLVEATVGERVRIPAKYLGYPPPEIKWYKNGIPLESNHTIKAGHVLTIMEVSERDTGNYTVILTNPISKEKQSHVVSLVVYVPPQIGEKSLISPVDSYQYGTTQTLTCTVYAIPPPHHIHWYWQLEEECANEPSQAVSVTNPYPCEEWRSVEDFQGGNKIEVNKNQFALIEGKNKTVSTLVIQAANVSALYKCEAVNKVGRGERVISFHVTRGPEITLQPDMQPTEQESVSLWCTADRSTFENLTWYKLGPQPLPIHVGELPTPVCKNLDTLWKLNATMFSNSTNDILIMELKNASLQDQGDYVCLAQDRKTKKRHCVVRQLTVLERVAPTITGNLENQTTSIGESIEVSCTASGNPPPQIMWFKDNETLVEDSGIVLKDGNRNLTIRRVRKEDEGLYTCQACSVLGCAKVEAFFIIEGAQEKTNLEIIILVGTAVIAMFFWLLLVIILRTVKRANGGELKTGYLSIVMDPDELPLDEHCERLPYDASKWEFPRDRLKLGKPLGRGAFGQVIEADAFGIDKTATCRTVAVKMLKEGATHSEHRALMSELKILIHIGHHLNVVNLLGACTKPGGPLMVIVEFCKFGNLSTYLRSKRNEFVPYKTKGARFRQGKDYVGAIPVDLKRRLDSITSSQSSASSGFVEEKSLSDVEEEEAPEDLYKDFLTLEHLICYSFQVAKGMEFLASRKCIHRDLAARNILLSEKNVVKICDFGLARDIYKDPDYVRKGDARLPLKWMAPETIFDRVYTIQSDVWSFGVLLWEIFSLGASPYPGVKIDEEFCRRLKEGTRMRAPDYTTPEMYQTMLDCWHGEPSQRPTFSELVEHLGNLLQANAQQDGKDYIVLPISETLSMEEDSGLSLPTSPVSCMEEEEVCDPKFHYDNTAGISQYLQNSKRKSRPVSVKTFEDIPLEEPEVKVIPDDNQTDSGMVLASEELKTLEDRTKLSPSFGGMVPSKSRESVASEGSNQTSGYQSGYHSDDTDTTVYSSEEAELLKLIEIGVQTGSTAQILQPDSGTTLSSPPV

Target: VEGFR2 (Homo sapiens, UniProt P35968)
Conditions: read-out: Kd of VEGF binding to VEGFR2; cited from earlier work

Q: Which Kd does the source give for VEGF here?
A: 0.4 to 0.8 nM
